Data taken from PubChem BioAssay AID2073 (Sanford-Burnham Center for Chemical Genomics, 2009).
The campaign covered roughly 290,000 compounds. About 570 (0.2%) were called active. The source calls these results inconclusive, neither active nor inactive. No stated cut-off is given here; in the data, active means inhibition mostly above about 51% (no sharp cut-off); inconclusive means no clear call, values can overlap the other calls; inactive means mostly below about 53%.

Protein sequences, listed by entry. Tags and fused reporters are not part of them.
UniProt Q00975, whole entry, looked up: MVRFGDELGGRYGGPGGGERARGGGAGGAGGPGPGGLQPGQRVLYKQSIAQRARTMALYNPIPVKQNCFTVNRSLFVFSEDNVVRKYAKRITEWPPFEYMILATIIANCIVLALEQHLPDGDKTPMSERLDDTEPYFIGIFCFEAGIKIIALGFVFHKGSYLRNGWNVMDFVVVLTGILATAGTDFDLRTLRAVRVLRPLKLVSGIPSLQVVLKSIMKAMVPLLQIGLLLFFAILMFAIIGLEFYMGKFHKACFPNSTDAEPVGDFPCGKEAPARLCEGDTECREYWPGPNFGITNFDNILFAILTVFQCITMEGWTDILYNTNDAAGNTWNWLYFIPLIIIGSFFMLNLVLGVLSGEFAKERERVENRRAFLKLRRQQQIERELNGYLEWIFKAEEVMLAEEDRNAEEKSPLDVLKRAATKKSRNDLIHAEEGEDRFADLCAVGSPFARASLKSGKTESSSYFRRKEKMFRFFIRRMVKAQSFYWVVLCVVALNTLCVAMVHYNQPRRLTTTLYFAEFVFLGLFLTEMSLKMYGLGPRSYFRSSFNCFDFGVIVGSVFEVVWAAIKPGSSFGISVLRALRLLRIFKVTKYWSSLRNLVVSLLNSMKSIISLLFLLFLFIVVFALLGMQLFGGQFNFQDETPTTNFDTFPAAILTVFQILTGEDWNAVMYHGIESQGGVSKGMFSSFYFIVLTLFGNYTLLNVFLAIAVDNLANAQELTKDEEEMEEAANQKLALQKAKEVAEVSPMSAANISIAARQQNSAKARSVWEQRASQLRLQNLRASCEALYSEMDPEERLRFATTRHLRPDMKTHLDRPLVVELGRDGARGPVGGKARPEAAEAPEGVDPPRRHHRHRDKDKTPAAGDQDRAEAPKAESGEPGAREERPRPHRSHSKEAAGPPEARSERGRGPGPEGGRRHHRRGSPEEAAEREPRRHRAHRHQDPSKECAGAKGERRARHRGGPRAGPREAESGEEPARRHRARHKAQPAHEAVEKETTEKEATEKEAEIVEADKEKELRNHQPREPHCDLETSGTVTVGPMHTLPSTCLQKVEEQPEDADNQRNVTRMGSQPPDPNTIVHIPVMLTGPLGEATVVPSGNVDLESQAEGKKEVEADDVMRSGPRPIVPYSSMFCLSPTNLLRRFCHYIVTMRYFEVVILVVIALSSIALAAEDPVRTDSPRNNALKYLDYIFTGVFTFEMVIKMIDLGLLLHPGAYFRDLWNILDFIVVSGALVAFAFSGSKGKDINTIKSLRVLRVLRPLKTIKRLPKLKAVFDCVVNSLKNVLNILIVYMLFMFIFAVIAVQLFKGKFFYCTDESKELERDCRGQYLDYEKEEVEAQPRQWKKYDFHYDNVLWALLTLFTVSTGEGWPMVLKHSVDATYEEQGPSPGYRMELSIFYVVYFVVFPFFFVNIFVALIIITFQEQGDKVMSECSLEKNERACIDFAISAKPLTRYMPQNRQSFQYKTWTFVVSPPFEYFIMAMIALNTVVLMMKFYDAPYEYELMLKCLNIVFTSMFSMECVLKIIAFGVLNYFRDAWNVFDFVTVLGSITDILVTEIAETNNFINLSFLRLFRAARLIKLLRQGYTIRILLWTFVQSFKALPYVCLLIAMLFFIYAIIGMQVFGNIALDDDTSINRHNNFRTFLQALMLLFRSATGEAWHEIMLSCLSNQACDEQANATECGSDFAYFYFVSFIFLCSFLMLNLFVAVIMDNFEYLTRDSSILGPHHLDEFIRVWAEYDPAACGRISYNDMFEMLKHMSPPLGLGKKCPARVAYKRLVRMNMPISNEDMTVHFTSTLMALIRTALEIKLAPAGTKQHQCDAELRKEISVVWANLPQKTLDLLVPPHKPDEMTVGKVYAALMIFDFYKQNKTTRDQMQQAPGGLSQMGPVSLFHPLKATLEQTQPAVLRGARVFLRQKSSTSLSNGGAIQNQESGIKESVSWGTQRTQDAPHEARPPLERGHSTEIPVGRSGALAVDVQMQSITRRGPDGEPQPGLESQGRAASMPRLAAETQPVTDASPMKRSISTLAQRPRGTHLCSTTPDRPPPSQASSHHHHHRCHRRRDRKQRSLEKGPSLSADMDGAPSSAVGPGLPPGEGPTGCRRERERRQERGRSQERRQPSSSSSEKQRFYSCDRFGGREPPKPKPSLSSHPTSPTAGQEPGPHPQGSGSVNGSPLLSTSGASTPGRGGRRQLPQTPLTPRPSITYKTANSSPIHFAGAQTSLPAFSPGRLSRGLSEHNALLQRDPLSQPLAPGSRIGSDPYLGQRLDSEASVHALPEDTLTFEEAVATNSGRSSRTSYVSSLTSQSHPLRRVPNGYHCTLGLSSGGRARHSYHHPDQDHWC

Molecular target: Voltage-dependent N-type calcium channel subunit alpha-1B (Homo sapiens) (UniProt Q00975)
Assay: inhibitors of Mint1-CaV2.2 protein interaction, biochemical, HTRF (AID 2073)
Settings: at 20 µM, hits give high values

SMILES | inhibition
CC(=O)c1ccc(N2CC2c2ccncc2)cc1 (stereo not drawn) | inconclusive: 56.4%
O=[As](O)(c1cccc(O)c1)c1cccc(O)c1 | inconclusive: 75.9%
Nc1cccc2c([As](=O)(O)O)cccc12 | inconclusive: 64.8%
